The values below come from patent publication US8026073B2, “Screening G protein-coupled receptor antagonists for methods of treating Alzheimer's disease” (Shanghai Institutes for Biological Sciences, Chinese …, priority 2005, dated 2011).

Protein sequences, listed by entry. Tags and fused reporters are not part of them.
UniProt P33533, whole entry: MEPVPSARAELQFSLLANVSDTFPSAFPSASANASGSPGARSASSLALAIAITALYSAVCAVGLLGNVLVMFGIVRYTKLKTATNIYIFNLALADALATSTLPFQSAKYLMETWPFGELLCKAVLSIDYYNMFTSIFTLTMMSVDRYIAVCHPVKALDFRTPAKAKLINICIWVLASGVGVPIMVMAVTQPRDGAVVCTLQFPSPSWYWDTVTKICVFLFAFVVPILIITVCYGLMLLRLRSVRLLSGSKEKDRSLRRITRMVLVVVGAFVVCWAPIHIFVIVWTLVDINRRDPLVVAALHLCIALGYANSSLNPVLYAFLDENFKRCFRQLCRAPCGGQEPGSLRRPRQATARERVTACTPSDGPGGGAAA

The assay has as its target endogenous DOR (Rattus norvegicus, UniProt P33533). To be noted: primary hippocampal cultures expressing C99; 1 μM DADLE, 1 h.

As to `CC(C)C[C@@H](NC(=O)[C@H](Cc1ccccc1)NC(=O)CNC(=O)[C@@H](C)NC(=O)[C@@H](N)Cc1ccc(O)cc1)C(=O)O` [DADLE, [D-Ala^2, D-Leu^5]-enkephalin], the “secreted Aβ” value is “increases Aβ production”.
